Test results published in patent US20140378378A1, “ERYTHROPOIETIN-DERIVED PEPTIDE AND USE THEREFOR” (priority 2011, published 2014).

Test system: HIT-T15 β-cells
Assay: Cell survival of HIT-T15 β-cells pre-treated with MKX-2 and then treated with H2O2, MTT assay
Format: cell-based, hamster
Procedure: HIT-T15 cells (75 to 77 passages), which are from an insulin secretion cell line derived from a hamster, and INS-1 cells (18 to 20 passages), which are from an insulin secretion cell line derived from a rat, were used. A culture medium used for culturing HIT-T15 cells was 10% FBS, 100 units/ml of penicillin, and 100 µg/ml of streptomycin added to RPMI-1640. The culture medium used for culturing INS-1 cells was 10% FBS and 1 mM pyruvate, 10 mM HEPES, 50 mM 2-mercaptoethanol, 100 units/ml penicillin, 100 µg/ml of streptomycin mixed in RPMI-1640. Two β-cell lines were cultured in conditions in which 95% humidity was maintained at a temperature of 37° C. and included 5% CO2. When cell confluence reached about 70% to about 80%, the cells were washed with PBS and then treated with 0.05% trypsin-EDTA to subculture the cells.
β-cells were divided into wells in a 24-well plate at a concentration of 1×10^5 cells/well and the β-cells were cultured for 24 hours such that a cell confluence reached about 70% to about 80%. After 24 hours, a pre-existing medium was removed and then replaced with RPMI-1640 including 0.5% FBS, cultured for 6 hours, and then the β-cells were inhibited from proliferation and differentiation. MKX-2 was dissolved in DMSO and then was used to pre-treat the β-cells at concentrations of 0 ng/ml, 0.12 ng/ml, 1.2 ng/ml, 12 ng/ml, 60 ng/ml, and 120 ng/ml, 1 hour prior to a H2O2 treatment. A control group was treated with DMSO at 0.001% to be compared to the treatment group. 1 hour after an MKX-2 treatment, a H2O2 treatment was performed for about 2 hours or about 4 hours. […] An absorbance value was quantitatively analyzed to calculate a cell growth inhibition rate
As described above, HIT-T15 and INS-1 cells, which are β-cells of islets of Langerhans, were seeded at a density of 1×10^5 cells/well for each well in a 24-well plate, which were then stabilized, and a preexisting medium was carefully removed therefrom on the day of the experiment, including even a miniscule amount of medium that remained after the removal. Thereafter, RPMI-1640 medium including 0.5% FBS was used to culture the β-cells for 6 hours and stop proliferation and differentiation of the β-cells. An MKX-2 treatment group and a control group only including the same amount of DMSO, which was used to dissolve MKX-2, were prepared. Thereafter, the MKX-2 treatment group was treated with in amounts of 0 ng/ml, 0.12 ng/ml, 1.2 ng/ml, 12 ng/ml, 60 ng/ml, and 120 ng/ml and then the β-cells were treated with H2O2 (100 M) for about 2 hours to about 4 hours to put the β-cells under stress, and then an MTT assay was used to compare cell survival rates.

## CC[C@H](C)[C@H](N)C(=O)N[C@@H](CO)C(=O)NCC(=O)N[C@@H](CC(C)C)C(=O)N[C@@H](CCCNC(=N)N)C(=O)N[C@@H](CO)C(=O)N[C@@H](CC(C)C)C(=O)N[C@H](C(=O)N[C@H](C(=O)N[C@@H](CC(C)C)C(=O)N[C@@H](CC(C)C)C(=O)N[C@@H](CCCNC(=N)N)C(=O)N[C@@H](C)C(=O)N[C@@H](CC(C)C)C(=O)NCC(=O)N[C@@H](C)C(=O)N[C@@H](CCC(N)=O)C(=O)N[C@@H](CCCCN)C(=O)N[C@@H](CCC(=O)O)C(=O)N[C@@H](CC(C)C)C(=O)N[C@@H](CCSC)C(=O)O)[C@@H](C)O)[C@@H](C)O [MKX-2]
0.12 ng/ml and 1.2 ng/ml, H2O2 treatment for 2 hours or 4 hours
  cell survival rate compared to non-MKX-2 treatment group: did not show a statistically significant difference
12 ng/ml, H2O2 treatment for 2 hours
  cell survival rate: 78.5%+0.92
12 ng/ml, H2O2 treatment for 4 hours
  cell survival rate: 59.57%+2.09
60 ng/ml, H2O2 treatment for 2 hours
  cell survival rate: 92.3%+5.24
60 ng/ml, H2O2 treatment for 4 hours
  cell survival rate: 67.19%+1.05
120 ng/ml, H2O2 treatment for 2 hours
  cell survival rate: 104.1%+2.87
120 ng/ml, H2O2 treatment for 4 hours
  cell survival rate: 84.73%+4.82
